Experimental data: US8722896B2, “Prokineticin receptor antagonists and uses thereof” (The Regents of the University of California, priority 2008, dated 2014)

Sequences of proteins named here, by UniProt entry; tags and fusion partners are left off. A change or cut given only in a name is not applied to a line headed by its entry.
UniProt Q8TCW9: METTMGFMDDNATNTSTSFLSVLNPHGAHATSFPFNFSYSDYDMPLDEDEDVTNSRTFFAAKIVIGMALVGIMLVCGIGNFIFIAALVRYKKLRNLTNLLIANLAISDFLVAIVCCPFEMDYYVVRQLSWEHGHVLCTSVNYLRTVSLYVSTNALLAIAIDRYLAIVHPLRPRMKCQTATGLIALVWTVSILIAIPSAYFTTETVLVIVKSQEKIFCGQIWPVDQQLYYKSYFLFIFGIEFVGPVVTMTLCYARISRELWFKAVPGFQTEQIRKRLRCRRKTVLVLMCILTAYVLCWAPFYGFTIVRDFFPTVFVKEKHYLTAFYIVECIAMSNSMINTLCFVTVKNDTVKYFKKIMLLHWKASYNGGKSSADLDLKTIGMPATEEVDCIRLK

Target: recombinant PKR1 (Homo sapiens (Human), UniProt Q8TCW9)
Test: Aequorin-based Ca2+ mobilization antagonist assay, CHO cells expressing PKR1
Type: cell-based

Ki | SMILES
3.78 nM | CC(C)CN(Cc1cc(Cl)c2c(c1)OCCCO2)C(=O)[C@H](C)CNCc1cccc2c1OCC2
1.56 nM | CC(C)CN(Cc1cc(Cl)c2c(c1)CCCCO2)C(=O)[C@@H]1CCN(Cc2cccc3c2CCN3)C1
19.7 nM | CCCN(Cc1cc(Cl)c2c(c1)OCCCO2)C(=O)C(C)CNCc1cccc2[nH]ccc12 (racemic)
23.4 nM | CC(C)CN(Cc1cc(Cl)c2c(c1)OCCCO2)C(=O)[C@@H]1CCN(Cc2ccccc2)C1 [Example 15, (3R)-1-Benzyl-N-(9-chloro-3,4-dihydro-2H-1,5-benzodioxepin-7-ylmethyl)-N-isobutyl pyrrolidine-3-carboxamide]
46.4 nM | Cc1ccccc1CN1CC[C@@H](C(=O)N(Cc2cc(F)c3c(c2)OCCCO3)CC(C)C)C1
25.2 nM | COc1ccccc1CNCC(C)C(=O)N(Cc1cc(Cl)c2c(c1)OCCCO2)CC(C)C (racemic)
6.96 nM and 4.9 nM | CC(C)CN(Cc1cc(Cl)c2c(c1)OCCCO2)C(=O)C(C)CNCc1cccc2cc[nH]c12 (racemic)
10.7 nM | CC(C)CN(Cc1cc(Cl)c2c(c1)OCCCO2)C(=O)C(C)CNCc1cccc2[nH]ccc12 (racemic)
67.4 nM | CC(C)CN(Cc1cc(Cl)c2c(c1)OCCCO2)C(=O)[C@@H](C)CNCc1cccc2cc[nH]c12
7.18 nM and 4.08 nM | CC(C)CN(Cc1cc(Cl)c2c(c1)OCCCO2)C(=O)[C@H](C)CNCc1cccc2[nH]ccc12
13.3 nM | CC(C)CN(Cc1cc(Cl)c2c(c1)OCCCO2)C(=O)C(C)CNCc1cccc2c1ccn2C (centres unmarked)

“And” between values parts separate entries of the source, which are not always exact repeats. Identical values can stand only once.
